These results are taken from US9346810B2, “Pyrrolopyrimidine compounds and uses thereof” (HUTCHISON MEDIPHARMA LIMITED, priority 2010, dated 2016).

Sequences of proteins named here, by UniProt entry; tags and fusion partners are left off. Residues count along the entry.
UniProt O60674, 849-1124: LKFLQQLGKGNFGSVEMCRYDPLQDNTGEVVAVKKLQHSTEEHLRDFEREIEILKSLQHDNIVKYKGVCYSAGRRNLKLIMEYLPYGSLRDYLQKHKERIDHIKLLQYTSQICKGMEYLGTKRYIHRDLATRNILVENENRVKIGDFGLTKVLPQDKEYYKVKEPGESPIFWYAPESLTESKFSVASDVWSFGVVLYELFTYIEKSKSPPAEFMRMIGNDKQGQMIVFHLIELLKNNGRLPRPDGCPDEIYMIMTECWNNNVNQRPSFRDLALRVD
UniProt P52333, 822-1111: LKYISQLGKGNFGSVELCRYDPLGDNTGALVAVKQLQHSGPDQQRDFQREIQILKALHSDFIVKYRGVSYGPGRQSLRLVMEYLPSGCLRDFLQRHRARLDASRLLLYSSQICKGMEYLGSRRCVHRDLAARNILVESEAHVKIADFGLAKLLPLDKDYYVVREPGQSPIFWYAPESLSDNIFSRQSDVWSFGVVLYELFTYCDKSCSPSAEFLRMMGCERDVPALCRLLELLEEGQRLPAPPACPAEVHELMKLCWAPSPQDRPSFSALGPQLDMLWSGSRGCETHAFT
UniProt P23458, 875-1153: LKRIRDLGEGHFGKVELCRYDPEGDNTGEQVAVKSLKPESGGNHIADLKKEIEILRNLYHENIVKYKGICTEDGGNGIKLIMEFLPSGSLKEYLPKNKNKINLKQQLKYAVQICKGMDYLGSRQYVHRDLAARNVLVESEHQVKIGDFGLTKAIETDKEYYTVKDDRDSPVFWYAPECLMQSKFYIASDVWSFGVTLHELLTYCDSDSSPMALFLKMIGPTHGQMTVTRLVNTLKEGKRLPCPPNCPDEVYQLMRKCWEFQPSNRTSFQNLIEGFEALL

Common to all, as to type: biochemical
Test [1] has as its target Recombinant human JAK2 catalytic domain (Homo sapiens (Human), UniProt O60674). Nature of the test: JAK2 kinase assay (Z'-LYTE, Tyr 6 Peptide). How it is done: (§1) JAK1/2/3 kinase assay are performed in vitro using Kit-Tyr 6 Peptide (Invitrogen, Cat. No. PV4122). TYK2 kinase assay are performed in vitro using Z′-LYTE™ Kinase Assay Kit-Tyr 3 Peptide (Invitrogen, Cat. No. PV3192). […] All compounds are initially tested at 8 different concentrations (1 μM down to 0.0003 μM) using a 1:3 serial dilution scheme.

In test [2] the target is Recombinant human JAK3 catalytic domain (Homo sapiens (Human), UniProt P52333). Description: JAK3 kinase assay (Z'-LYTE, Tyr 6 Peptide). How it is done:
as §1

For test [3], the target named is Recombinant human JAK1 catalytic domain (Homo sapiens (Human), UniProt P23458). Description: JAK1 kinase assay (Z'-LYTE, Tyr 6 Peptide). The conditions noted are these: read-out: JAK1 (enzyme, IC50). How it is done:
as §1

The mark [4] stands for this setting: read-out: IC50 in JAK2 kinase assay.
The mark [5] stands for this setting: read-out: IC50 in JAK3 kinase assay.

Where two headings read alike, the source gives them in different places.

As a reminder, the IC50 is the concentration that inhibits the measured activity by half. Regarding `CN(c1ccc(C(=O)NC2c3ccccc3C[C@H]2O)cc1F)[C@@H]1CCN(c2ncnc3[nH]ccc23)C1` (single isomer, unassigned) [Compound 204], the IC50 in test [1] (setting [4]) lay within 0.001 to 0.1 µM. Regarding `CN(c1nc(C#N)cs1)[C@@H]1CCN(c2ncnc3[nH]ccc23)C1` [Compound 93], the IC50 was in the range of 0.1 to 1 µM in test [2] and 0.001 to 0.1 µM in test [1]. Take `CN(c1ncc(C#N)cn1)[C@@H]1CCN(c2ncnc3[nH]ccc23)C1` [Compound 142, (R)-2-((1-(7H-pyrrolo[2,3-d]pyrimidin-4-yl)pyrrolidin-3-yl)(methyl)amino)pyrimidine-5-carbonitrile]: the half-maximal inhibitory concentration (IC50) in test [3] is 0.0094 µM; in test [1] (read-out: JAK2 (enzyme, IC50)) it was 0.055 µM. Regarding `CN(c1ccc(C(=O)NC2c3ccccc3CC2O)cc1F)[C@@H]1CCN(c2ncnc3[nH]ccc23)C1` (some centres unmarked) [Compound 184], the IC50 in test [2] (setting [5]) was 0.1 to 1 µM; in test [1] (setting [4]) it was 0.001 to 0.1 µM.

Turning to `CN(c1ccc(C(=O)NC(CO)c2ccc(Cl)cc2)cc1F)[C@@H]1CCN(c2ncnc3[nH]ccc23)C1` (some centres unmarked) [Compound 201], the IC50 in test [2] (setting [5]) was in the range of 0.1 to 1 µM.

In the case of `CN(c1ccc(C(=O)NC[C@H](O)c2ccccc2)cc1F)[C@@H]1CCN(c2ncnc3[nH]ccc23)C1` [Compound 202], the IC50 in test [2] (setting [5]) is 0.1 to 1 µM. Regarding `CN(c1ccc(C(=O)N[C@@H]2c3ccccc3C[C@H]2O)cc1F)[C@@H]1CCN(c2ncnc3[nH]ccc23)C1` [Compound 206], the IC50 in test [2] (read-out: JAK3 (enzyme, IC50)) worked out at 0.047 µM; in test [1] (read-out: JAK2 (enzyme, IC50)) it was 0.0005 µM.
